Measurements published in PubChem BioAssay AID2247 (Johns Hopkins Ion Channel Center, 2010).
Only a part is listed here, and it is no random draw. Some results for these compounds are left out of this collection, so the calls shown say nothing about other tests. Activity calls are given as the source filed them.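 How the source made its calls: active means B-score over 3 SD under the library average, no early fluorescence shift, positive overall ratio signal; inactive means the rest.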

Amino acid sequences for entries named in this document (tags omitted).
UniProt Q9QUQ5, whole entry: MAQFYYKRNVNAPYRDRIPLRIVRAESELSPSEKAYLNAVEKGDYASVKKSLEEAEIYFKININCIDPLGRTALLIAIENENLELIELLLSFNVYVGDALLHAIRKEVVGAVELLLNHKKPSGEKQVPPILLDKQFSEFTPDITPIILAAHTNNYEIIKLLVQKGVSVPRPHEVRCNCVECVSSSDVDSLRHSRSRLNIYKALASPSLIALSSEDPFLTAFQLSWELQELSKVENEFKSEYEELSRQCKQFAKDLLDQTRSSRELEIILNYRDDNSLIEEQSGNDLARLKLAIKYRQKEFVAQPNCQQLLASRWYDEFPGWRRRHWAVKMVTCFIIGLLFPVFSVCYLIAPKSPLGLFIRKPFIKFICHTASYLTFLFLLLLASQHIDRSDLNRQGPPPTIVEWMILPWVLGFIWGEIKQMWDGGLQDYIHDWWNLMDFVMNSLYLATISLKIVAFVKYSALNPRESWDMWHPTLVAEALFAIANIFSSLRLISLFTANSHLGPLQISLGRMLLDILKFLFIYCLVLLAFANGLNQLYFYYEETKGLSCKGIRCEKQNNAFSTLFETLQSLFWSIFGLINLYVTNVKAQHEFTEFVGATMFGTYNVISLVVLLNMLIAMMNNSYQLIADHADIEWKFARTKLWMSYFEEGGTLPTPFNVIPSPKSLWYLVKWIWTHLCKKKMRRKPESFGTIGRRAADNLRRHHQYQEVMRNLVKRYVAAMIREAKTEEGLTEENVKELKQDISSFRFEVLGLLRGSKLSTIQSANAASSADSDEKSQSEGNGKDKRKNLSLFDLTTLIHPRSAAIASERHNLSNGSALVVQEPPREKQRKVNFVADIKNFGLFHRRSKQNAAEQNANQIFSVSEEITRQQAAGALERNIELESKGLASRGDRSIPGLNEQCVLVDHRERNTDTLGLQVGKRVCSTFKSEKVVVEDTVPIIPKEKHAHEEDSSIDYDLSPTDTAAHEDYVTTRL

Molecular target: Short transient receptor potential channel 4 (Mus musculus) (UniProt Q9QUQ5)
Assay: blockers of DAMGO-evoked TRPC4 calcium flux – Fluo4 calcium, HEK293 TRPC4beta/mu-opioid cells, primary screen (AID 2247)
Conditions: at 10 µM

Row | SMILES | outcome
1 | O=C(NCC1(N2CCCCC2)CCCCC1)c1cc([N+](=O)[O-])ccc1Cl | inactive
2 | CN1[C@@H]2CC[C@H]1CC(OC(=O)C(O)(c1ccccc1)c1ccccc1)C2 (stereo partly drawn) | inactive
3 | CCN(CC)CC(C)C(C)OC(=O)C(O)(c1ccccc1)c1ccccc1 (stereo not drawn) | inactive
4 | COc1cc(SC)ccc1C(=O)NCC1(N(C)C)CCCCC1 | inactive
5 | CC(C)N1C(=O)CC2(CCN(CCOC(=O)C(O)(c3ccccc3)c3ccccc3)CC2)C1=O | inactive
6 | Cc1ccc(C(=O)NCC2(N3CCCCC3)CCCCC2)cc1 | inactive
7 | Cc1ccccc1C(=O)NCC1(N2CCCCC2)CCCCC1 | inactive
8 | CN(C)C1CCCC1OC(=O)C(O)(c1ccccc1)c1ccccc1 (stereo not drawn) | inactive
9 | C=CCN1CCN(CCOC(=O)C(O)(c2ccccc2)c2ccccc2)CC1 | inactive
10 | O=C(NCC1(N2CCCCC2)CCCCC1)c1cc(F)c(F)cc1Cl | inactive
11 | COc1ccc(C(=O)NCC2(N(C)C)CCCCC2)cc1 | inactive
12 | Cc1cc(C(=O)NCC2(N3CCCCC3)CCCCC2)ccc1[N+](=O)[O-] | inactive
13 | CCN1CCCC(OC(=O)C2(O)c3ccccc3C=Cc3ccccc32)C1 (stereo not drawn) | inactive
14 | O=C(NCC1(N2CCCCC2)CCCCC1)c1cccc(Br)c1 | inactive
15 | CN(C)C1(CNC(=O)c2ccc(Br)cc2)CCCCC1 | inactive
16 | COc1cc(C(=O)NCC2(N(C)C)CCCCC2)c([N+](=O)[O-])cc1OC | inactive
17 | COc1cccc(C(=O)NCC2(N3CCCCC3)CCCCC2)c1 | inactive
18 | COc1ccc(Cl)cc1C(=O)NCC1(N(C)C)CCCCC1 | inactive
19 | O=C(NCC1(N2CCCCC2)CCCCC1)c1cccc(Cl)c1 | inactive
20 | O=C(OC1CN2CCC1CC2)C(CO)(c1ccccc1)c1ccccc1 (stereo not drawn) | inactive
21 | COc1ccc(Br)c(C(=O)NCC2(N3CCCCC3)CCCCC2)c1 | inactive
22 | CC(C)Oc1ccc(C(=O)NCC2(N(C)C)CCCCC2)cc1 | inactive
23 | CN(C)c1cccc(C(=O)NCC2(N(C)C)CCCCC2)c1 | inactive
